According to patent US8178692B2:

Which “solubility in formic acid compared with water” value (FIG. 1, difference greater at lower temperatures) does the source give for `O=C1N=CN=N1` here?
The value was “much more soluble in formic acid than it is in water”.

What about the “solubility of the product in ethanol” value (ethanol, 76° C., single data point of FIG. 1) of the same compound?
Its value is 6%.
